From patent publication US20260199485A1, “RNA DEGRADERS AND USES THEREOF” (Arrakis Therapeutics, Inc., priority 2022, published 2026)

By UniProt entry, the sequences of proteins in these tests, tags left out.
UniProt Q9UIV1, whole entry: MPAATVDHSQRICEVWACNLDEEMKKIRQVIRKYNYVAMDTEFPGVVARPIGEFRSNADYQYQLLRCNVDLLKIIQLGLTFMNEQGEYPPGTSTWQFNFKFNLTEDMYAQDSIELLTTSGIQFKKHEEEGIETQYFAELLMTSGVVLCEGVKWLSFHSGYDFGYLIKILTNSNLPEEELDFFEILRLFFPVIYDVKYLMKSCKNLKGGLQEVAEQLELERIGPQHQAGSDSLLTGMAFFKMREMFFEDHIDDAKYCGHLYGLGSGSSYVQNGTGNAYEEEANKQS

The compounds below were run against CNOT7 (Homo sapiens, UniProt Q9UIV1) (assay: Binding of compounds to CNOT7 by surface plasmon resonance (SPR)). Details: Table 5; dissociation constant for CNOT7 by SPR.
Experimental: Surface plasmon resonance (SPR) was used to evaluate the binding of compounds to CNOT7. Experiments were performed on a Biacore 8K (Cytiva) with a running buffer consisting of 20 mM HEPES pH7.5, 100 mM KCl, 3 mM MgCl2, 1 mM TCEP, 0.05% tween-20, 2% DMSO. Briefly, biotinylated CNOT7 (Ichor Life Sciences) at a concentration of 70 μg/ml was immobilized to a streptavidin coated chip (Cytiva sensor chip SA) for 1200 sec at a flow rate of 5 μl/min (typical immobilization level 7,500 RU). For compound binding experiments, various concentrations of analyte were flowed over the chip with 120 sec association phase, 120 sec dissociation phase, at a flow rate of 30 ul/min and collection rate of 10 Hz. Reference channel subtraction and solvent correction were applied to all sensograms prior to data analysis. Sensograms were fit to 1:1 steady state affinity model. FIGS. 3 and 4 show the binding of exemplary compounds and the AMP control (a known CNOT7 active site binder) at various concentrations to CNOT7.

Compound	Kd [µM]
COc1ccc([C@H](NC(=O)CSc2nc(=O)[nH]cc2C)C2CC2)cc1	1 to 25

Same assay, conditions: dissociation constant by SPR, Table 7

Compound	Kd [µM]
COCCOCC#CC[C@@H](Sc1nc(=O)[nH]cc1C)C(=O)NCc1ccc(OC)cc1	1 to 25
COc1ccc(CNC(=O)[C@H](Cc2ccc(O)cc2)Sc2nc(=O)[nH]cc2C)cc1	> 25
COC[C@@H](Sc1nc(=O)[nH]cc1C)C(=O)NCc1ccc2c(c1)CC(=O)N2C	1 to 25
C#CCOCCOCCOCCOC[C@@H]1CN(C(=O)CSc2nc(=O)[nH]cc2Cl)[C@H](C)c2ccc(OC)cc21	> 25
COc1ccc(CNC(=O)[C@@H](CCc2ccc(O)cc2)Sc2nc(=O)[nH]cc2C)cc1	1 to 25
COc1ccc2c(c1)CCN(C(=O)CSc1nc(=O)[nH]cc1Cl)[C@@H]2C	> 25
COCCOCC[C@H](Sc1nc(=O)[nH]cc1C)C(=O)NCc1ccc(OC)cc1 [Compound I-167, (2S)-4-(2-methoxyethoxy)-N-[(4-methoxyphenyl)methyl]-2-[(5-methyl-2-oxo-1H-pyrimidin-4-yl)sulfanyl]butanamide]	1 to 25
C#CCOCCOCCOCCOC[C@@H]1CN(C(=O)CSc2nc(=O)[nH]cc2C)Cc2ccc(OC)cc21	1 to 25
COC[C@H](Sc1nc(=O)[nH]cc1C)C(=O)N1CCc2cc(OC)ccc2[C@H]1C	1 to 25
COC[C@@H](Sc1nc(=O)[nH]cc1C)C(=O)N1CCc2cc(OC)ccc2[C@H]1C	1 to 25
COc1ccc(CNC(=O)[C@@H](Cc2ccc(O)cc2)Sc2nc(=O)[nH]cc2C)cc1	1 to 25
COc1ccc2c(c1)[C@@H](COCCOCCOCCOCCN=[N+]=[N-])CN(C(=O)CSc1nc(=O)[nH]cc1Cl)[C@H]2C	> 25
C#CCOCCOCCOCCOC[C@H]1CN(C(=O)CSc2nc(=O)[nH]cc2C)Cc2ccc(OC)cc21	> 25
